Patent US5416191A, “Bradykinin antagonists” (Cortech, Inc., priority 1993, dated 1995)

Chains of the proteins cited; added tags and fusions are not shown.
UniProt P25023, whole entry: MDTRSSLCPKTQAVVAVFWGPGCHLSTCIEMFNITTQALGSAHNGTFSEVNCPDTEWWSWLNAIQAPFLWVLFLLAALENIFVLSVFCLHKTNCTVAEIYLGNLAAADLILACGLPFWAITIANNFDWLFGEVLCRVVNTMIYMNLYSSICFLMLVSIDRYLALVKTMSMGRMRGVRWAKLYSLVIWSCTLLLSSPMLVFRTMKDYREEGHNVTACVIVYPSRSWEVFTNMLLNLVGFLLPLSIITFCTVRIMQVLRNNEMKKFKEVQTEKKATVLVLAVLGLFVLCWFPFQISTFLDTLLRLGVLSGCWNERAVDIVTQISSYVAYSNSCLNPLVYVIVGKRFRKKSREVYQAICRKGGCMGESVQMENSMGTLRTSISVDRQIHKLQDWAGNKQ
UniProt O70526, whole entry: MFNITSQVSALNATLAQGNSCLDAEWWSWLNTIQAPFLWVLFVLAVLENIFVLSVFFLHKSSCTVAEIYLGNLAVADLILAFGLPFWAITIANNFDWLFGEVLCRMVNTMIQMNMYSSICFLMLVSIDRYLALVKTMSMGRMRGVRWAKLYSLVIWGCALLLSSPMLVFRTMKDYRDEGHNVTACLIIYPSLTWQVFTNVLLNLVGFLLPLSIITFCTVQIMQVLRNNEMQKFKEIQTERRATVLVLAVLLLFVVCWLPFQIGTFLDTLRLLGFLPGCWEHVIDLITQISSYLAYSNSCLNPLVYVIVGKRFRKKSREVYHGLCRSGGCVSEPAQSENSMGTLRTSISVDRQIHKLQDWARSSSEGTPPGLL

Experiments:
[1] = target: T1, bradykinin receptor of the B2 class (rat uterus) (Rattus norvegicus, UniProt P25023); assay: Rat uterus (RU) in vitro, antagonism of bradykinin
T1 construct: concentration effect curves to bradykinin (BK) on rat uterus in vitro; from tissue; host or cells: rat uterus
Experimental: Thus in vitro studies were performed on standard assay systems, namely, guinea-pig ileum (GPI), rat uterus (RU) and rabbit jugular vein (RJV). […] The PA2 can be defined as the negative logarithm of the molar concentration of the antagonist in the presence of which the potency of the agonist is reduced two-fold, i.e. twice the amount of agonist is required to produce a given response in the presence of, than in the absence of, the antagonist. A high potency of antagonism is indicated by a high PA2 value, i.e., a low concentration of antagonist is effective.
The percentage recovery (% Rec) was also determined for compounds with respect to each assay.
With respect to duration of activity, it is noted that after exposure to the highest concentration of antagonist, each tissue was washed extensively and then assessed for recovery from the antagonist effect.
Potency in the rat uterus assay was assessed as described above and PA2 values determined.

[2] = target: bradykinin receptor of the B2 class (guinea-pig ileum) (Cavia porcellus, UniProt O70526); conditions: Table A; recovery after wash, lower = longer duration

CC(C)C[C@H](NC(=O)[C@@H](Cc1ccccc1)NC(=O)[C@H](CS)NC(=O)[C@H](Cc1ccccc1)NC(=O)CNC(=O)[C@@H]1C[C@@H](O)CN1C(=O)[C@@H]1CCCN1C(=O)[C@H](CCCNC(=N)N)NC(=O)[C@H](N)CCCNC(=N)N)C(=O)N[C@@H](CCCNC(=N)N)C(=O)O [CP-0126]
100%: RU % REC ([1]; Table A, recovery after wash) | % REC MONOMER ([1]; Table C, rat uterus) | RAT UTERUS % RECOVERED ([1]; Table E) | % RECOVERY ([1]; Table H, rat uterus) | GPI % REC [2]
